Source: US20170157260A1, “Glycosylated Polypeptide and Drug Composition Containing said Polypeptide” (Glytech, Inc., priority 2011, published 2017)
Like-named read-outs stand apart in the source and are kept apart here.

Chains of the proteins cited; added tags and fusions are not shown. Lines headed by an entry give the natural chain unless they say otherwise; changes in a name come on top.
UniProt P30874: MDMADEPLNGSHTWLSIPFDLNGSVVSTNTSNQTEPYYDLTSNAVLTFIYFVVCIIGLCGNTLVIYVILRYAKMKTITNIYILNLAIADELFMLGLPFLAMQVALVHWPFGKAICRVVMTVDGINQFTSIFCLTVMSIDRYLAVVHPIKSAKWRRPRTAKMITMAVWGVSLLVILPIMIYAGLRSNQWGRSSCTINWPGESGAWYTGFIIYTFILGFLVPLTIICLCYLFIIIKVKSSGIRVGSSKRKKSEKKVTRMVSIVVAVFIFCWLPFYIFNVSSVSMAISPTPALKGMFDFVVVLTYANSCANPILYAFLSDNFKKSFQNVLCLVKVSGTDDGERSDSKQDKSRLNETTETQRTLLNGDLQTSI
UniProt P32745: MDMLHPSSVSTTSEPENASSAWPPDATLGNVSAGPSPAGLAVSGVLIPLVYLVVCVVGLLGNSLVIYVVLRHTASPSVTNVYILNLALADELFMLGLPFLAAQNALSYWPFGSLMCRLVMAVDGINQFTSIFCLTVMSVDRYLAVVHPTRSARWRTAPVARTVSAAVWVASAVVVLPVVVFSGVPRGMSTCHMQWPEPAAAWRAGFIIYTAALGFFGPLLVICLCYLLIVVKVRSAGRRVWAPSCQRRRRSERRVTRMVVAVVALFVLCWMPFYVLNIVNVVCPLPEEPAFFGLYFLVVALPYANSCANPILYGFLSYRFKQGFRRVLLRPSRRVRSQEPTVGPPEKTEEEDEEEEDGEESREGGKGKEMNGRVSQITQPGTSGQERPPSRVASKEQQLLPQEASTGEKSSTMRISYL
UniProt P35346: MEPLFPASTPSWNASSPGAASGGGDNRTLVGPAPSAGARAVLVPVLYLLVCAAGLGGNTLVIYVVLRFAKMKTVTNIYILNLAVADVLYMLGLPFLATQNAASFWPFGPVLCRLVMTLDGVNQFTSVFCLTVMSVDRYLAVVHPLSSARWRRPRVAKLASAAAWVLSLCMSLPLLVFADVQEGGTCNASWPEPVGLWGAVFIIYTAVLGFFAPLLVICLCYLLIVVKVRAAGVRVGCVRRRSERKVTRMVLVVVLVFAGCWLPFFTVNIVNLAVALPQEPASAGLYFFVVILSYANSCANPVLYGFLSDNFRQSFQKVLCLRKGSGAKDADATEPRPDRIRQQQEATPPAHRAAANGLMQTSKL
UniProt P30872: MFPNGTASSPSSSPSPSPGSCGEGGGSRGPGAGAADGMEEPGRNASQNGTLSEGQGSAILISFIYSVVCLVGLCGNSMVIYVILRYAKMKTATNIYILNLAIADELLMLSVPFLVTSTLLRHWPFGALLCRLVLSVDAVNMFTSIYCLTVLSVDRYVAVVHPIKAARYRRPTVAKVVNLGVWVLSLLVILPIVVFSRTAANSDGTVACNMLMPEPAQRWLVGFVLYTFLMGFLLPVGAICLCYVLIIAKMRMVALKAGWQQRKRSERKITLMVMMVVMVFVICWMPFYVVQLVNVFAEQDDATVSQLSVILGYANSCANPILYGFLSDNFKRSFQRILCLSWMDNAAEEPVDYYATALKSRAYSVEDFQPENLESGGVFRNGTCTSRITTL
UniProt P31391: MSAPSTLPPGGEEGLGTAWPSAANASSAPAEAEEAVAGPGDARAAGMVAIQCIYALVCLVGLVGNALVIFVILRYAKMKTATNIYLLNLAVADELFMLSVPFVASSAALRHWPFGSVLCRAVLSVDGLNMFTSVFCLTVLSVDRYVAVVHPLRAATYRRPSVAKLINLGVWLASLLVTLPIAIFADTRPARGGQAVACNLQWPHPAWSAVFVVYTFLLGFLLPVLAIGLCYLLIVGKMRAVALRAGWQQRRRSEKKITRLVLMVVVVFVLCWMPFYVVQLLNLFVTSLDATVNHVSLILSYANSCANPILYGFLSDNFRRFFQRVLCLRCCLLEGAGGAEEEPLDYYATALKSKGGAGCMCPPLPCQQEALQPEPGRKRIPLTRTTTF

Assays:
SSTR2 [1] = biological target: T1, SSTR2 (Homo sapiens, UniProt P30874); assay: Agonist activity evaluation (cAMP production suppression), SSTR2 receptor expression cells; assay type: cell-based; design: host or cells: CHO-K1 cells
SSTR3 [2] = biological target: T2, SSTR3 (Homo sapiens, UniProt P32745); assay: Agonist activity evaluation (cAMP production suppression), SSTR3 receptor expression cells; assay type: cell-based; design: host or cells: CHO-K1 cells
SSTR3 [3] = biological target: T2, SSTR3; assay: Competitive binding assay, SSTR3; settings: Table 3B, Example 67-2, competitive binding assay; for IC50: read-out: SSTR3 IC50; for Ki: read-out: SSTR3 Ki
SSTR5 [4] = biological target: T3, SSTR5 (Homo sapiens, UniProt P35346); assay: Agonist activity evaluation (cAMP production suppression), SSTR5 receptor expression cells; assay type: cell-based; design: host or cells: CHO-K1 cells
SSTR5 [5] = biological target: T3, SSTR5; assay: Competitive binding assay, SSTR5; settings: Table 3B, Example 67-2, competitive binding assay; for IC50: read-out: SSTR5 IC50; for Ki: read-out: SSTR5 Ki
SSTR1 [6] = biological target: T4, SSTR1 (Homo sapiens, UniProt P30872); assay: Competitive binding assay, SSTR1; settings: Table 3B, Example 67-2, competitive binding assay; for IC50: read-out: SSTR1 IC50; for Ki: read-out: SSTR1 Ki
[7] = Pharmacokinetics test with rats (intravenous and subcutaneous administration); settings: rats; for BA: subcutaneous vs intravenous
SSTR2 [8] = biological target: T1, SSTR2; assay: Competitive binding assay, SSTR2; settings: Table 3B, Example 67-2, competitive binding assay; for IC50: read-out: SSTR2 IC50; for Ki: read-out: SSTR2 Ki
SSTR4 = SSTR4 (Homo sapiens, UniProt P31391); assay: Agonist activity evaluation (cAMP production suppression), SSTR4 receptor expression cells; assay type: cell-based
SSTR3 [9] = biological target: T2, SSTR3
SSTR1 [10] = biological target: T4, SSTR1
SSTR2 [11] = biological target: T1, SSTR2
SSTR1 [12] = biological target: T4, SSTR1; assay: Agonist activity evaluation (cAMP production suppression), SSTR1 receptor expression cells; assay type: cell-based
SSTR5 [13] = biological target: T3, SSTR5
[14] = tested on: growth hormone (GH) production; assay: GH production suppression test with rats; assay type: in vivo; settings: Table 8 (Example 87), vehicle 1012
[15] = Table 3E, Example 67-4, read-out: IC50 of the agonist activity, SSTR1
[16] = Table 5E, intravenous, unit as in Table 4
[17] = Table 5E, subcutaneous, unit as in Table 4

Substance | IC50 (SSTR3 [3]) [nM] | Ki (SSTR3 [3]) [nM] | IC50 (SSTR5 [5]) [nM] | Ki (SSTR5 [5]) [nM] | IC50 (SSTR1 [6]) [nM] | Ki (SSTR1 [6]) [nM] | Intravenous administration AUC ([7]; Tables 5B-5F (Examples 73-84)) [nM·min] | Intravenous administration C0 ([7]; Tables 5B-5F (Examples 73-84)) [nM] | Intravenous administration MRT ([7]; Tables 5B-5F (Examples 73-84)) [min] | Intravenous administration T1/2 ([7]; Tables 5B-5F (Examples 73-84)) [min] | Subcutaneous administration AUC ([7]; Tables 5B-5F (Examples 73-84)) [nM·min] | Subcutaneous administration Cmax ([7]; Tables 5B-5F (Examples 73-84)) [nM] | Subcutaneous administration MRT ([7]; Tables 5B-5F (Examples 73-84)) [min] | Subcutaneous administration T1/2 ([7]; Tables 5B-5F (Examples 73-84)) [min] | BA ([7]; Tables 5B-5F (Examples 73-84)) [%] | IC50 (SSTR2 [8]) [nM] | Ki (SSTR2 [8]) [nM] | Ki (SSTR3 [9]) [nM] | IC50 (SSTR1 [10]) [nM] | Ki (SSTR1 [10]) [nM] | also measured
C(disialo)-PEG linker-SRIF14 [Example 43] | 8.71 | 2.98 | > 10 | > 5.65 | 36 | 30 | 3538 | 412 | 18.8 | 16.4 | 2725 | 47.8 | 39.2 | 20.7 | 77 | 4.67 | 2.48 |  |  |  | IC50 (SSTR2 [1]; read-out: IC50 of the agonist activity, SSTR2, Table 3E, Example 67-4): 0.034 nM; IC50 (SSTR3 [2]; read-out: IC50 of the agonist activity, SSTR3; Table 3E, Example 67-4): 0.15 nM; IC50 (SSTR5 [4]; read-out: IC50 of the agonist activity, SSTR5, Table 3E, Example 67-4): 0.16 nM
N5C(disialo)-A9C(disialo)-SRIF28 [Example 23] |  |  |  |  |  |  |  |  |  |  |  |  |  |  |  |  |  | 1.49 | 30 | 24.9 | IC50 (SSTR2 [1]; Table 3E, Example 67-4, read-out: IC50 of the agonist activity, SSTR2): 0.096 nM; IC50 (SSTR3 [2]; Table 3E, Example 67-4; read-out: IC50 of the agonist activity, SSTR3): 0.29 nM; IC50 (SSTR4; Table 3E, Example 67-4, read-out: IC50 of the agonist activity, SSTR4): 0.091 nM; IC50 (SSTR5 [4]; Table 3E, Example 67-4, read-out: IC50 of the agonist activity, SSTR5): 0.13 nM; IC50 (SSTR2 [11]): 0.793 nM; Ki (SSTR2 [11]): 0.421 nM; BA ([7]; BA=(AUC(sc)/Dose(sc))/(AUC(iv)/Dose(iv)), Table 5A): 77%
N19C(disialo)-SRIF28 [Example 10] |  |  |  |  |  |  |  | 407 | 21.5 | 18.8 |  | 41.7 | 55.3 | 37.9 |  |  |  | 0.603 | 15.1 | 13.3 | IC50 (SSTR1 [12]; [15]): 22 nM; IC50 (SSTR3 [9]): 1.17 nM; IC50 (SSTR2 [11]): 1.21 nM; Ki (SSTR2 [11]): 0.615 nM; IC50 (SSTR5 [13]): 3.69 nM; Ki (SSTR5 [13]): 2.09 nM
S1C(asialo)-SRIF28 [Example 27] | 1.02 | 0.349 | 1.04 | 0.588 | 3.97 | 3.29 | 4802 | 749 | 12.5 | 13.4 | 710 | 17.2 | 29.0 | 19.7 | 16 | 0.2 | 0.105 |  |  |  | IC50 (SSTR2 [1]; Table 3D, Example 67-3, read-out: IC50 of cAMP production suppressing action (agonist activity), SSTR2): 0.041 ± 0.006 nM; IC50 (SSTR4; Table 3D, Example 67-3, read-out: IC50 of cAMP production suppressing action (agonist activity), SSTR4): 0.039 ± 0.021 nM; IC50 (SSTR5 [4]; Table 3D, Example 67-3, read-out: IC50 of cAMP production suppressing action (agonist activity), SSTR5): 0.055 ± 0.031 nM; IC50 (SSTR1 [12]; Table 3D, Example 67-3, read-out: IC50 of cAMP production suppressing action (agonist activity), SSTR1): 1.6 ± 0.6 nM; GH ([14]; dose 1 nmol/kg): 879 ng/mL; GH ([14]; dose 3 nmol/kg): 515 ng/mL; GH ([14]; dose 10 nmol/kg): 146 ng/mL; C0, intravenous administration ([7]; Table 5E, intravenous, extrapolation, unit as in Table 4): 749 nM; MRT, intravenous administration [7, 16]: 12.5 min; T1/2, intravenous administration [7, 16]: 13.4 min; AUC, subcutaneous administration [7, 17]: 710 nM·min; Cmax, subcutaneous administration [7, 17]: 17.2 nM; MRT, subcutaneous administration [7, 17]: 29.0 min; T1/2, subcutaneous administration [7, 17]: 19.7 min; BA (bioavailability), subcutaneous administration ([7]; Table 5E, formula of b926): 16%; extension of t1/2 compared to the non-glycosylated form (SRIF28 or SRIF14) ([7]; administered intravenously): 10 folds; increase of AUC compared to the non-glycosylated form (SRIF28 or SRIF14) ([7]; administered intravenously): 10 folds
S1C(disialo(Bn))-SRIF28 [Example 59] | 2.15 | 0.733 | 3.25 | 1.83 |  |  |  |  |  |  |  |  |  |  | 28 | 0.247 | 0.13 |  |  |  | IC50 (SSTR1 [12]; [15]): 1.4 nM; GH ([14]; dose 10 nmol/kg): 49 ng/mL
